pKi: −log10 of the molar value.
Target: Acetylcholine-binding protein (Lymnaea stagnalis, UniProt P58154)
Assay: Displacement of [125I]alpha-bungarotoxin from Lymnaea stagnalis His-tagged AchBP

Sequences of proteins named here, by UniProt entry; tags and fusion partners are left off.
UniProt P58154, whole entry: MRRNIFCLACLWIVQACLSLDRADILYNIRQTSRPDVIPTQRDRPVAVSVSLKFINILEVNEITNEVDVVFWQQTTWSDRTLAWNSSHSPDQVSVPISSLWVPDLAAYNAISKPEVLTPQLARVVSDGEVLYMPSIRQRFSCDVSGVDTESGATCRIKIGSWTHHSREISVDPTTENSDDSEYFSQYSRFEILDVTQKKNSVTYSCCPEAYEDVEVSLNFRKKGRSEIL

CN1CCC[C@H]1c1cccnc1 [NICOTINE] was tested. Which pKi did it give?
Its pKi is 7.20.
